Test results from patent US20260028326A1, “COMPOUND BASED ON ISOINDOLINE-SUBSTITUTED GLUTARIMIDE BACKBONE AND USE THEREOF” (GLUETACS THERAPEUTICS (SHANGHAI) CO., LTD., priority 2022, published 2026).

Columns and labels:
Mino cells = assay: Tumor cell proliferation IC50 (CCK-8), Mino; conditions: Homo sapiens, 72 h, read-out: IC50 for inhibiting the proliferation of tumor cells, Mino;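 also: cell viability assessed with CCK-8 reagent after compound exposure, IC50 derived from plotted growth inhibition curves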
MM.1S cells = assay: Tumor cell proliferation IC50 (CCK-8), MM.1S; conditions: Homo sapiens, MM1.S, 72 h, read-out: IC50 for inhibiting the proliferation of tumor cells, MM.1S;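 also: viability of cultured cells read by CCK-8 reagent after compound exposure, growth inhibition curves fitted to derive IC50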
Ramos cells = assay: Tumor cell proliferation IC50 (CCK-8), Ramos; conditions: Homo sapiens, 72 h, read-out: IC50 for inhibiting the proliferation of tumor cells, Ramos
SU-DHL-6 cells = assay: Tumor cell proliferation IC50 (CCK-8), SU-DHL-6; conditions: Homo sapiens, SU-DHL-6, 72 h, read-out: IC50 for inhibiting the proliferation of tumor cells, SU-DHL-6
SW620 cells = assay: Tumor cell proliferation IC50 (CCK-8), SW620; conditions: Homo sapiens, SW-620, 96 h, read-out: IC50 for inhibiting the proliferation of tumor cells, SW620
TMD8 cells = assay: Tumor cell proliferation IC50 (CCK-8), TMD8; conditions: Homo sapiens, TMD8, 72 h, read-out: IC50 for inhibiting the proliferation of tumor cells, TMD8
Kasumi-1 cells = assay: Tumor cell proliferation IC50 (CCK-8), Kasumi-1; conditions: Homo sapiens, Kasumi 1, 72 h, read-out: IC50 for inhibiting the proliferation of tumor cells, Kasumi-1
CCRF-CEM cells = assay: Tumor cell proliferation IC50 (CCK-8), CCRF-CEM; conditions: Homo sapiens, 96 h, read-out: IC50 for inhibiting the proliferation of tumor cells, CCRF-CEM;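 also: cell viability measured with CCK-8 reagent after compound treatment, IC50 taken from plotted growth inhibition curves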
SU-DHL-4 cells = assay: Tumor cell proliferation IC50 (CCK-8), SU-DHL-4; conditions: Homo sapiens, SU-DHL-4, 72 h, read-out: IC50 for inhibiting the proliferation of tumor cells, SU-DHL-4
MV-4-11 cells = assay: Tumor cell proliferation IC50 (CCK-8), MV-4-11; conditions: Homo sapiens, MV4-11, 96 h, read-out: IC50 for inhibiting the proliferation of tumor cells, MV-4-11
MDA-MB-231 cells = assay: Tumor cell proliferation IC50 (CCK-8), MDA-MB-231; conditions: Homo sapiens, MDA-MB-231, 96 h, read-out: IC50 for inhibiting the proliferation of tumor cells, MDA-MB-231
Daudi cells = assay: Tumor cell proliferation IC50 (CCK-8), Daudi; conditions: Homo sapiens, read-out: IC50 for inhibiting the proliferation of tumor cells, Daudi;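 also: cell viability read with CCK-8 reagent after compound exposure of Daudi cells, IC50 derived from plotted growth inhibition curves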
MM.1R cells = assay: Tumor cell proliferation IC50 (CCK-8), MM.1R; conditions: Homo sapiens, 72 h, read-out: IC50 for inhibiting the proliferation of tumor cells, MM.1R

Measured: IC50

Nc1cccc2c1CN(C1CCC(=O)NC1=O)C2=O (stereo not shown) [lenalidomide, reference compound]
> 10 µM: all assays above
